Source: PubChem (National Center for Advancing Translational Sciences (NCATS))
Sampled rows, rich in hits. Any-hit rate of the full collection: about 2%.
Abeta rescue = compounds reversing amyloid beta toxicity in yeast | yeast expressing A-beta42, growth rescue, OD600, 48 h; response scale: 0% DMSO, 100% iron-clioquinol control | Potency, µM (series often up to 46.1 µM), actives largely listed as activators | 410,000 tested, 0.063% active; note: nearly all actives have a fitted effect of over 55% in size
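Growth rescue measured by 600 nm absorbance after 48 h yeast culture at 30 C with compound. Values normalized between DMSO and an equimolar ferric chloride plus clioquinol control.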
Rango complex inh = Rango-importin beta binding inhibition. Potency, µM (top dose mostly 92.2 µM). AID 540263. Q14974. Rango CFP/YFP FRET sensor + importin beta, 45 min. 340,000 tested, 0.031% active; calls by dose curve; note: nearly all actives have a fitted effect of over 15% in size
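FRET biosensor Rango (snurportin 1 IBB between N-terminal EYFP and C-terminal Cerulean), 50 nM in PBS/1 mM DTT/0.02% Tween-20/0.1% BSA, preincubated 5 min RT with compound; 0.125 microM importin beta added, 45 min RT, CFP/YFP FRET ratio read.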
Rango dissoc inh = prevents RanGTP from dissociating the Rango-importin beta complex; Biochemical FRET Rango-importin beta, RanGTP-induced dissociation; Potency, µM (highest dose often 46.1 µM); 340,000 tested, 0.071% active; AID 540253; calls by dose curve; note: nearly all actives have a fitted effect of over 45% in size
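Rango/importin beta premix (0.1/0.25 uM final), PBS + 1 mM DTT + 0.02% Tween-20 + 0.1% BSA; cpd 5 min RT; FRET pre-read; + RanGTP-RCC1 (0.6 uM Ran, 2 mM GTP, 0.2 uM RCC1); 45 min RT; FRET post-read, ex 430, em 486/530 nm.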
aSyn yeast inh = rescues yeast growth from alpha-synuclein toxicity; Yeast expressing alpha-synuclein, growth rescue, BacTiter-Glo, 24 h; Potency, µM (titrated, usually from 46.1 µM), hits mostly activators; 370,000 tested, 0.14% active; AID 652106; note: nearly all actives have a fitted effect of over 65% in size
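Screening used galactose-induced yeast with toxic alpha-synuclein levels, exposed to compound for 24 hr at 30 deg C. Cell growth, read with BacTiter-Glo luminescence, gave the measured signal.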
TDP43 rescue = rescues yeast growth from TDP-43 toxicity; AID 652104; 410,000 tested, 1.8% active; Potency, µM (series often up to 46.1 µM), most hits filed as activators; TDP-43 expressing yeast growth rescue, BacTiter-Glo, 24 h; note: nearly all actives have a fitted effect of over 50% in size
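Cell-based yeast growth screen: TDP-43 expression induced in galactose, inoculum OD600=0.02 after raffinose pregrowth to mid-log. Read-out BacTiter-Glo luminescence at 24 hr, 30 deg C; inhibition of toxicity seen as signal increase.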
S-ASM inh = blocks human secretory acid sphingomyelinase; P17405; placental ASM, HMU-PC fluorogenic substrate, 60 min; Potency, µM (series often up to 57.5 µM), actives largely listed as inhibitors; 340,000 tested, 0.006% active; AID 504937
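Human placenta-derived ASM preincubated with compound 10 min at room temperature, then reacted with 9 uM (final) fluorogenic HMU-PC substrate for 60 min at 37 C. Stop solution raises pH to 10; fluorescence read at Ex 386/Em 447 nm.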
Hits are given with their value; i = inactive; ? = inconclusive; nt = no result given; [ ] = dose if it differs, or a comment. Unless noted, calls come from the whole dose curve; as a rule, active = well fitted curve in the direction sought with a large enough effect; inconclusive = small, poorly fitted or top-dose-only effect, or another doubt; inactive = no such curve, though single readings can be large; an effect the other way counts as inactive or inconclusive.

SMILES	Abeta rescue	Rango complex inh	Rango dissoc inh	aSyn yeast inh	TDP43 rescue	S-ASM inh
COc1cccc(CSc2nc3n(n2)C(CC(C)C)C(C(=O)Nc2ccccc2C)=C(C)N3)c1 (stereo not given)	i	nt	nt	nt	i	nt
Cc1ccc(C(=O)NCc2ccco2)cc1[N+](=O)[O-]	i	i	i	i	i	i
CC1CCCN(c2ccc(C(=O)NCc3ccco3)cc2[N+](=O)[O-])C1 (stereo not given)	i	i	i	i	14µM	i
CCCCNc1nc2ccccc2c2nc(-c3ccccc3)nn12	i	nt	nt	nt	i	nt
Cc1ccc(S(=O)(=O)c2nc(-c3cccc(C)c3)oc2N2CCCCC2)cc1	i	nt	nt	nt	i	nt
COc1ccccc1-c1nnc(-c2ccc(N3CCOCC3)cc2)o1	i	i	i	i	13µM	i
Cc1ccc(Nc2ncnc(Cl)c2N)cc1	i	i	i	i	35µM	i
O=C(NC1CC(=O)N(c2ccccc2)C1)c1ccc(S(=O)(=O)N2CCCC2)cc1 (stereo not given)	i	nt	nt	nt	i	nt
c1ccc(Nc2scc(-c3ccccc3)[n+]2Cc2ccco2)cc1	i	i	i	i	20µM	i
CN(Cc1ccccc1)C(=O)COC(=O)c1ccc2ccccc2n1	i	i	i	i	i	i
CCc1nc2ccccc2c(C(=O)OCC(=O)N(C)Cc2ccccc2)c1C	i	i	i	i	35µM	i
CCNC(=O)C1=C(O)c2sccc2N(C)S1(=O)=O	i	i	i	i	8.9µM	i
Cc1csc2nc(-c3cccc(NC(=O)c4cccc(F)c4)c3)cn12	i	nt	nt	i	?	nt
COc1cccc(-c2nc(C(=O)NCC3CCCO3)cc3c2[nH]c2ccccc23)c1 (stereo not given)	i	i	i	?	20µM	i
COc1ccc(OC)c(-c2nc(C(=O)NCC3CCCO3)cc3c2[nH]c2ccccc23)c1 (stereo not given)	i	i	i	i	?	i
Cc1noc(/C=C/c2ccccc2F)c1S(=O)(=O)N1CCC(C(=O)Nc2ccc(C#N)cc2)CC1	i	nt	nt	nt	i	nt
CCOC(=O)c1ccccc1NC(=O)c1nn(C)c2c1COc1ccccc1-2	i	nt	nt	nt	i	nt
CC(C)=N/N=C1/NC(=O)C(c2ccc(Cl)cc2)S1 (stereo not given)	?	i	i	i	20µM	i
CCc1cccc(C)c1NC(=O)CSc1n[nH]c(-c2ccccc2)n1	i	nt	nt	nt	i	nt
CCOC(=O)C1=NNC(C(=O)c2ccc(C)cc2)C1c1ccc(OC)cc1 (stereo not given)	i	i	i	i	20µM	i
Cc1nc2c(-c3ccc(F)cc3)cnn2c(N)c1-c1ccccc1	i	i	i	i	13µM	i
O=C(Cn1cnc2c(oc3ccccc32)c1=O)Nc1ccc(F)cc1F	i	nt	nt	nt	i[9.22 µM]	nt
O=C(c1ccoc1)N1CCN(c2cc(-c3cccnc3)nc3cc(-c4cccc(Cl)c4)nn23)CC1	i	nt	nt	i	7.9µM	nt
CC(=O)N1CCN(c2cc(-c3ccccc3)nc3cc(-c4cccc(Cl)c4)nn23)CC1	i	nt	nt	i	2.2µM	nt
O=[N+]([O-])c1ccc(-c2nc(-c3cccs3)c(-c3cccs3)[nH]2)cc1	i	9.2µM	i	i	3.2µM	i
SMILES	Abeta rescue	Rango complex inh	Rango dissoc inh	aSyn yeast inh	TDP43 rescue	S-ASM inh
Cc1coc2cc3oc(=O)c(CC(=O)NCc4cccc(Cl)c4)c(C)c3cc12	i	nt	nt	nt	i	nt
O=CNc1cc(-c2ccccc2)cn2c(-c3ccc(F)c(Cl)c3)cnc12	i	nt	nt	i	?	nt
CN(C)c1ccc(-c2cc(NC=O)c3ncc(-c4ccc(F)c(Cl)c4)n3c2)cc1	i	nt	nt	i	22µM	nt
CN1CCN(c2ccc(-c3cc(NC=O)c4ncc(-c5ccc(F)c(Cl)c5)n4c3)cc2)CC1	i	nt	nt	i	i	nt
O=CNc1cc(-c2cccc(F)c2)cn2c(-c3ccc(F)c(Cl)c3)cnc12	i	nt	nt	i	16µM	nt
Cc1cc(SC#N)cc(C)c1NC(=O)CCl	i	i	i	i	?	i
CCC(=O)Nc1ccc(SC#N)cc1C	i	i	i	i	11µM	i
COc1ccc2c(c1)OC[C@H]1[C@H]2N2C(=O)c3ccccc3NC(=O)[C@@]2(C)[C@H]1c1ccccc1	i	i	i	i	28µM	i
COc1ccc2c(c1)OC[C@H]1[C@H]2N2C(=O)c3cc(C)ccc3NC(=O)[C@@]2(C)[C@H]1c1ccccc1	i	i	i	i	?	i
O=C(Nc1ccccn1)C1CCN(S(=O)(=O)c2ccc3ccccc3c2)CC1	i	i	i	i	11µM	i
O=C(C1CCN(S(=O)(=O)c2ccc3ccccc3c2)CC1)N1CCN(c2ncccn2)CC1	i	i	i	i	20µM	i
Cc1ccnc(NC(=O)C2CCN(S(=O)(=O)c3ccc4ccccc4c3)CC2)c1	i	i	i	i	i	i
CC(I)CCC(C)[n+]1cccc(I)c1 (stereo not given)	nt	nt	nt	i	nt	nt
COc1ccc(OCC(O)CNc2ccc(Br)cc2)cc1 (stereo not given)	i	i	i	i	11µM	i
COc1ccc(OCC(O)CNC(=O)c2ccc(Br)cc2)cc1 (stereo not given)	i	i	i	i	i	i
O=C(Nc1ccc(Cl)cc1)c1cc2c(cc1O)[nH]c1ccccc12	i	i	i	i	4µM	i
Cc1cc(C)c(S(=O)(=O)NCCc2cc3c(C)ccc(C)c3[nH]c2=O)c(C)c1	i	nt	nt	nt	i	nt
CCOc1ccccc1C(=O)Nc1cccc(-c2ccc(N3CCOCC3)nn2)c1	?	i	i	i	16µM	i
O=S(=O)(CCSc1nc2ccccc2s1)c1nc2ccccc2s1	i	i	i	i	2.5µM	i
CCS(=O)(=O)CCSc1nc2ccccc2s1	i	i	i	i	i	i
CC(C)(C)S(=O)(=O)c1nc2ccccc2s1	i	i	i	i	i	i
C=CCS(=O)(=O)c1nc2ccccc2s1	i[9.22 µM]	i	i	i	22µM	i
Clc1ccc(/C=C/c2ccncc2)cc1Cl	nt	nt	nt	i	nt	nt
C=C(C)Cn1c(=S)[nH]c2ccccc2c1=O	i	i	i	i	13µM	i
O=C(OCc1c(Cl)cccc1Cl)c1cccnc1Cl	i	i	i	i	13µM	i
O=[N+]([O-])c1cccc(S(=O)(=O)NCC2CC3CCC2C3)c1 (stereo not given)	i	i	i	i	11µM	i
O=[N+]([O-])c1ccc(S(=O)(=O)NCC2CC3CCC2C3)cc1 (stereo not given)	i	i	i	i	i	i
CCC(=O)c1ccc(OCc2ccc(C(=O)OC)cc2)c(OC)c1	i	i	i	i	i	i
CCC(=O)c1ccc(OCc2ccccc2)c(OC)c1	i	i	i	i	11µM	nt
CCOc1ccccc1NS(=O)(=O)c1c(C(=O)OC)sc2cccc(F)c12	i	nt	nt	nt	i	nt
